# Assays:
# RKO = assay: XTT cytotoxicity assay, RKO; format: cell-based
# Protocol: (§1) The XTT assay is a non-radioactive alternative for the [^51Cr] release cytotoxicity assay. XTT is a tetrazolium salt that is reduced to a formazan dye only by metabolically active, viable cells. The reduction of XTT is measured spectrophotometrically as OD490-OD650.
# (§2) To measure the cytotoxicity of specific compounds against cancer cells, 9×10^3 MCF-7 human breast cancer cells, obtained from the American Type Culture Collection are plated per well in 96 well plates in DMEM medium with 10% fetal bovine serum, insulin, penicillin, and streptomycin. Following overnight culture at 37° C. and 5% CO2, the compounds to be tested, dissolved in DMSO, are added to the wells in 1 μl volume at the following concentrations: 80, 40, 20, 10, 5, 2.5, 1.25, and 0.625 μg/ml in triplicate. Additional concentrations are tested if required. 1 μl of DMSO is added to triplicate wells are the vehicle control. C75 is run at 40, 20, 10, […], 10, and 5 in triplicate as positive controls.
# (§3) After 72 hours of incubation, cells are incubated for 4 hours with the XTT reagent as per manufacturer's instructions (Cell Proliferation Kit II (XTT) Roche). Plates are read at OD490 and OD650 on a Molecular Devices SpectraMax Plus Spectrophotometer. Three wells containing the XTT reagent without cells serve as the plate blank. XTT data are reported as OD490-OD650. […]
# OV = assay: XTT cytotoxicity assay, OV
# FAO = FAO SC 150 / FAO Max
# [1] = test system: MCF-7 human breast cancer cells; assay: Crystal violet cell growth assay, MCF-7; conditions: no cell code printed; MCF-7 per method, 72 hours
# Protocol: Crystal Violet Cell Growth Assay
# The crystal violet assay measure cell growth but not cytotoxicity. This assay employs crystal violet staining of fixed cells in 96-well plates with subsequent solubilization and measurement of OD490 on a spectrophotometer. The OD490 corresponds to cell growth per unit time measured. Cells are treated with the compounds of interest or vehicle controls and IC50 for each compound is computed.
# To measure the cytotoxicity of specific compounds against cancer cells, 5×10^4 MCF-7 human breast cancer cells, obtained from the American Type Culture Collection are plated per well in 24 well plates in DMEM medium with 10% fetal bovine serum, penicillin, and streptomycin. Following overnight culture at 37° C. and 5% CO2, the compounds to be tested, dissolved in DMSO, are added to the wells in 1 μl volume at the following concentrations: 50, 40, 30, 20, and 10 μg/ml in triplicate. […]
# After 72 hours of incubation, cells are stained with 0.5 ml of Crystal Violet stain (0.5% in 25% methanol) in each well. […] Following transfer of 100 μl from each well to a 96-well plate, plates are read at OD490 on a Molecular Devices SpectraMax Plus Spectrophotometer Average OD490 values are computed using SOFTmax Pro Software (Molecular Devices) and IC50 values are determined by linear regression analysis using Prism version 3.02 (Graph Pad Software, San Diego).
# MRC = assay: XTT cytotoxicity assay, MRC; format: cell-based
# Protocol: as §1, §2, §3
# 3T3 = assay: XTT cytotoxicity assay, 3T3; format: cell-based
# Protocol: as §1, §2, §3
# H = assay: XTT cytotoxicity assay, H
# Protocol: as §1, §2, §3
# [2] = test system: MCF-7 human breast cancer cells; assay: [14C]acetate incorporation into total lipids
# Protocol: Measurement of [^14 C]acetate Incorporation into Total Lipids and Determination of IC50 of Compounds
# This assay measures the incorporation of [^14C]acetate into total lipids and is a measure of fatty acid synthesis pathway activity in vitro. It is utilized to measure inhibition of fatty acid synthesis in vitro.
# MCF-7 human breast cancer cells cultured as above, are plated at 5×10^4 cells per well in 24-well plates. Following overnight incubation, the compounds to be tested, solubilized in DMSO, are added at 5, 10, and 20 μg/ml in triplicate, with lower concentrations tested if necessary. DMSO is added to triplicate wells for a vehicle control. C75 is run at 5 and 10 μg/ml in triplicate as positive controls. After 4 hours of incubation, 0.25 μCi of [^14C]acetate (10 μl volume) is added to each well.
# After 2 hours of additional incubation, medium is aspirated from the wells and 800 μl of chloroform:methanol (2:1) and 700 μl of 4 mM MgCl2 is added to each well. Contents of each well are transferred to 1.5 Eppendorf tubes, and spun at full-speed for 2 minutes in a high-speed Eppendorf Microcentrifuge 5415D. After removal of the aqueous (upper) layer, an additional 700 μl of chloroform:methanol (2:1) and 500 μl of 4 mM MgCl2 are added to each tube and then centrifuged for 1 minutes as above. […] Once dried, 3 ml of scintillant (APB #NBC5104) is added and vials are counted for ^14C. […]
# 231 = assay: XTT cytotoxicity assay, 231; format: cell-based
# Protocol: as §1, §2, §3
# SKBR = assay: XTT cytotoxicity assay, SKBR; format: cell-based
# Protocol: as §1, §2, §3
# [3] = test system: MCF-7 human breast cancer cells; assay: XTT cytotoxicity assay, MCF-7 (M); conditions: (M) or no code; MCF-7, 72 hours
# Protocol: as §1, §2, §3
# [4] = Weight loss screen in Balb/C mice; conditions: 60 mg/kg intraperitoneally, day 2
# Protocol: Weight Loss Screen for Novel FAS Inhibitors
# Balb/C mice (Jackson Labs) are utilized for the initial weight loss screening. Animals are housed in temperature and 12 hour day/night cycle rooms and fed mouse chow and water ad lib. Three mice are utilized for each compound tested with vehicle controls in triplicate per experiment. For the experiments, mice are housed separately for each compound tested three mice to a cage. Compounds are diluted in DMSO at 10 mg/ml and mice are injected intraperitoneally with 60 mg/kg in approximately 100 μl of DMSO or with vehicle alone. Mice are observed and weighed daily; average weights and standard errors are computed with Excel (Microsoft). The experiment continues until treated animals reach their pretreatment weights.
compound,measurement,setting,value
CCCCCCCCC1(C)SC(=O)C=C1OCC(=O)NNc1ccc(Cl)cc1 (centres unmarked),XTT (IC50),RKO,4.5 µg/mL (RKO)
same,XTT (IC50),OV,8.8 µg/mL (OV)
same,FAO Max: concentration at which the maximum was seen,FAO,@ 0.195 ug/ml
same,FAO SC 150,FAO,Neg
same,FAO Max,FAO; at the concentration given under E18,107%
same,Cr. Violet (IC50),[1],<5 µg/mL
same,XTT (IC50),MRC,4.3 µg/mL (MRC)
same,XTT (IC50),3T3,14.9 ug/ml (3T3)
same,XTT (IC50),H,4.7 µg/mL (H)
same,14C (IC50),[2],12.7 ± 3.7 µg/mL
same,XTT (IC50),231,9.4 ug/ml (231)
same,XTT (IC50),SKBR,7.3 µg/mL
same,XTT (IC50),[3],6.0 ± 0.8 µg/mL
same,Weight Loss,[4],60 mg/kg: 1.4% (day 2)

# Source: US20100168176A1, “NOVEL COMPOUNDS, PHARMACEUTICAL COMPOSITIONS CONTAINING SAME, AND METHODS OF USE FOR SAME” (FASGEN LLC, priority 2006, published 2010)
